Inhibition data for 2 compounds are collected here from PubChem BioAssay AID1259374 (The Scripps Research Institute Molecular Screening Center, 2018).

The chains behind the UniProt entries cited, without tags or fusion partners.
UniProt O75030, whole entry: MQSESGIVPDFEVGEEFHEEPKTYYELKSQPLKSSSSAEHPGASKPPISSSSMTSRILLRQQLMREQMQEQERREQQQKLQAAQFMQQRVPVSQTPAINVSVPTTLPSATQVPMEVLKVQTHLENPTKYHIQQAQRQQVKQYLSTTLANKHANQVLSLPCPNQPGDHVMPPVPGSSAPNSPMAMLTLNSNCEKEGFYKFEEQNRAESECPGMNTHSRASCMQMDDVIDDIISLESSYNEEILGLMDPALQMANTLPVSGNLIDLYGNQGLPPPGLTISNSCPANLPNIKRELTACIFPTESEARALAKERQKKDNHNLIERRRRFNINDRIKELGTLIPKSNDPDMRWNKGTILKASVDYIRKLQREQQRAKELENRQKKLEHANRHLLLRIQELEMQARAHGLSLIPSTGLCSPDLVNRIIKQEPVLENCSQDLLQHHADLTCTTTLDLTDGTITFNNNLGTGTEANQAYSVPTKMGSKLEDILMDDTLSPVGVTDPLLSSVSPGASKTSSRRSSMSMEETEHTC

Molecules are shown by their SMILES. This is a selection; strong and weak results do not stand in their true shares. Some of these compounds have results that are not shown, active ones among them. Active and inactive are the calls of the source. Rule as the data show it: active = inhibition above about 50%; inactive = the rest.

The target of this experiment is Microphthalmia-associated transcription factor (Homo sapiens) (UniProt O75030). The experiment in a line: MITF inhibitors, primary screen, biochemical, AlphaScreen, human (AID 1259374).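 Also: 0% = vehicle wells with protein.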 To be noted: AlphaScreen MITF homodimerization, bead proximity signal; at 2.6 µM; hits give high values. Background: In Alpha technology, singlet oxygen from a donor bead excites a nearby acceptor bead.
Turning to `O=C(c1ccco1)N(Cc1ccco1)C1CCN(CCc2cccs2)CC1`, the inhibition is inactive: 0.42%.

Consider `CC(=O)N(Cc1cccnc1)C1CCN(CCc2cccs2)CC1`, for which the inhibition is inactive: 19.1%.

By inhibition is commonly meant the share of the control response that was lost under treatment.
